Results published in article doi:10.1101/2024.08.28.609967, “Reconstitution of BNIP3/NIX-mediated autophagy reveals two pathways and hierarchical flexibility of the initiation machinery” (bioRxiv, 2024).

Biological target: T1, GFP-tagged ATG13/101 subcomplex (UniProt O75143 1-517; Q9BSB4 1-218)
T1 construct: ATG13; ATG101; source: FreeStyle HEK293F cells, transfected, purified (glutathione beads, TEV cleavage, SEC); not shown: GST, N-terminal, cleaved; GFP, N-terminal, kept
T1 sequence (looked up) 1: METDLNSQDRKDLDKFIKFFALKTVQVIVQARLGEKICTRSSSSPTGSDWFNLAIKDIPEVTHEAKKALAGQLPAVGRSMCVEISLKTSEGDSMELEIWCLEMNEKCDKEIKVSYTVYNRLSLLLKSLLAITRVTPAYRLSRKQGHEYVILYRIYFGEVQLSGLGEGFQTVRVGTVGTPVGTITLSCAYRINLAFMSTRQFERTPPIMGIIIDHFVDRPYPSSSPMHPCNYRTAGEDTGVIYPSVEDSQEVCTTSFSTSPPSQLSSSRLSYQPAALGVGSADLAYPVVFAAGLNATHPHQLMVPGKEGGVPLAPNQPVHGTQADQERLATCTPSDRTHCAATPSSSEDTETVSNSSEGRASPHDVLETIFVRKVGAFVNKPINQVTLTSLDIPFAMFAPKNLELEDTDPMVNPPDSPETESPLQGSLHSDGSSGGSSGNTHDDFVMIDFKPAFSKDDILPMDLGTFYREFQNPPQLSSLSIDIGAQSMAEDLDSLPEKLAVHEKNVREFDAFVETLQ
T1 sequence (looked up) 2: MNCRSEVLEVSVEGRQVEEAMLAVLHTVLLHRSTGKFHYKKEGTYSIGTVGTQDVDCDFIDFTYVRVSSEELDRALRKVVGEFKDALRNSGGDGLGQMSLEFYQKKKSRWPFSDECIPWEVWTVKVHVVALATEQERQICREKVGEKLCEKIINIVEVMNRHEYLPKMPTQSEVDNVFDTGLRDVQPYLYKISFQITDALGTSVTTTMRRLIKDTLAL
Test: microscopy-based bead assay; GFP-trap agarose beads coated with GFP-tagged bait (ULK1 complex, ATG13/101, FIP200, ULK1 K46I, ATG13 IDR and its fragments or variants; 5 uM), mCherry-tagged WIPI proteins as prey; 25 mM Tris-HCl pH 7.4, 150 mM NaCl, 1 mM DTT; confocal imaging
Details: both partners purified

B1: mCherry-WIPI3 (natural protein)
chain: not shown
notes: also called mCherry-tagged WIPI3; source: E. coli Rosetta pLysS, purified (His-Trap, SEC); not shown: mCherry, N-terminal, kept
**Q.** Does B1 bind?
**A.** Result: binds
